Activity calls are given as the source filed them. No rule for the calls is given here.
Assays:
Phosphomannomutase 2 = molecular target: T1, Phosphomannomutase 2 (Homo sapiens, UniProt O15305); test: Counter screen SAR assay for PMM2 inhibitors via a fluorescence intensity assay. [Related pubchem assays (depositor defined):AID1545, AID1574]
T1 sequence (O15305 whole entry): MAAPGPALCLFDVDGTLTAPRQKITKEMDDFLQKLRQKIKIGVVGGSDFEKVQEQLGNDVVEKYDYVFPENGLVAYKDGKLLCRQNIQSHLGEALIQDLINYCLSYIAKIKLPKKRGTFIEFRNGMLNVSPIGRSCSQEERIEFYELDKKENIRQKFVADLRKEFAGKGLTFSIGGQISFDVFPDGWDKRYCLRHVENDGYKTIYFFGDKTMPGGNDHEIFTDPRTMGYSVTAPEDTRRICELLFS

Chains of the proteins cited; added tags and fusions are not shown.
UniProt Q16539, whole entry: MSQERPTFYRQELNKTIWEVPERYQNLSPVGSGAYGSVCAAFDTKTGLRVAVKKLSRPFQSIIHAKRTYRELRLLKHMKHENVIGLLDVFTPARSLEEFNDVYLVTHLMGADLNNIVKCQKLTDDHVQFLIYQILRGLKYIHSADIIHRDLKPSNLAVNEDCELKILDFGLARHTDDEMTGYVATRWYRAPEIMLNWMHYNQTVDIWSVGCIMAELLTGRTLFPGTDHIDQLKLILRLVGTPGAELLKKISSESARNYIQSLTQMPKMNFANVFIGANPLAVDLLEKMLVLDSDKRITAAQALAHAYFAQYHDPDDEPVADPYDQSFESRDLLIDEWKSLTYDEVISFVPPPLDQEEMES

[1] = molecular target: Mitogen-activated protein kinase 14 (Homo sapiens, UniProt Q16539); assay type: functional;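 also: part of a kinome-wide panel, MAPK14 entry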

SMILES | IC50 (Phosphomannomutase 2) | Ki [1]
O=c1c2ccccc2sn1-c1ccccc1 | active: 36.9 µM | –
NC(=O)c1ccc(-c2nc(-c3ccc4c(c3)OCO4)c(-c3ccccn3)[nH]2)cc1 [SB-431542] | – | inactive: > 3.98 µM
